Each structure is given as a SMILES string.

This assay addresses Tyrosine-protein kinase SYK (Homo sapiens, UniProt P43405).

As usually defined, the IC50 is the midpoint of a concentration-inhibition curve. High values mean lower potency, low ones higher potency. `c1cn2cc(-c3ccc4cn[nH]c4c3)nc(Nc3ccc(N4CCOCC4)cc3)c2n1` [ENTOSPLETINIB] displayed an IC50 of 7.7 nM.

Source of the values: ChEMBL document CHEMBL3259702, “Discovery of GS-9973, a selective and orally efficacious inhibitor of spleen tyrosine kinase” (J Med Chem, 2014).
